Earlier results, collected in US10695378B2, “Direct reprogramming of cells to cardiac myocyte fate” (Duke University, priority 2010, dated 2020).

Columns and labels:
[1] = test system: multiple myeloma cells expressing activated JAKs; conditions: cells expressing activated JAKs and STATS

CC(C)(C)c1nc2c3ccc(F)cc3c3c(=O)[nH]ccc3c2[nH]1 [JAK inhibitor 1, 2-(1,1-Dimethylethyl)-9-fluoro-3,6-dihydro-7H-benz[h]-imidaz[4,5-f]isoquinolin-7-one]
growth of multiple myeloma cells [1]: induces the growth inhibition
IL-2- and IL-4-dependent proliferation of CTLL cells (CTLL cells): inhibits
